By EC50 is commonly meant the concentration giving half of the maximal effect.

We go through one compound from US11267861B2, “Peptide-oligourea foldamer compounds and methods of their use” (UREKA SARL, priority 2016, dated 2022).

Series [1] deals with T1, mouse GLP-1 receptor (Mus musculus, UniProt O35659).
T1 construct: mouse GLP-1 receptor endogenously expressed in βTC6 cells; endogenous in cells; host or cells: βTC6 cells
T1 sequence (O35659 22-463): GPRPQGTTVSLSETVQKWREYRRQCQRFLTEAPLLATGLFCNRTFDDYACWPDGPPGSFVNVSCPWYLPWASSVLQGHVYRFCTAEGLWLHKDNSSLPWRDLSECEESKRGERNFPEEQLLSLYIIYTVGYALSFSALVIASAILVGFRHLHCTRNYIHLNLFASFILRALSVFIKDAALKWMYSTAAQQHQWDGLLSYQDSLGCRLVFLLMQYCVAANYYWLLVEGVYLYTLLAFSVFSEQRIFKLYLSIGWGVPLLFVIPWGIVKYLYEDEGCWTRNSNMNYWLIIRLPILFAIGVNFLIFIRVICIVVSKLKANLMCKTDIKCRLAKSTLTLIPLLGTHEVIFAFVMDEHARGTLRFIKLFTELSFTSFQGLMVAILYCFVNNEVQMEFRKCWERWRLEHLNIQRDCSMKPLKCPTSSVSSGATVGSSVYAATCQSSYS
The experiment in a line: GLP-1 functional assay: agonist activity by cAMP production (HTRF) in βTC6 cells. The class given is cell-based. On the procedure:
For stimulated control measurement, separate assay wells contain 10 nM GLP-1(7-37) were utilized.
Following incubation, the cells were lysed and the fluorescence acceptor (D2-labeled cAMP) and fluorescence donor (anti-cAMP antibody labeled with europium cryptate) were added. […] The results are expressed as a percent of the control response to 10 nM GLP-1(7-37). The standard reference agonist is GLP-1(7-37), which was tested in each experiment at several concentrations to generate a concentration-response curve from which its EC50 value was calculated.
HTRF (Homogeneous Time-Resolved Fluorescence) principle. The HTRF technology is based on time resolved fluorescence energy transfer (TR-FRET), which occurs between long-lived fluorophore Europium or Terbium Cryptates, and EuK or Tb respectively, as a donor and the allophycocyanin XL665, d2 or Red as acceptor. Many compounds and proteins present in biological fluids or serum are naturally fluorescent, and the use of conventional, prompt fluorescence leads to serious limitations in assay sensitivity. The use of long-lived fluorophore combined with time-resolved detection (a delay between excitation and emission detection) minimizes prompt fluorescence interference.

The target of series [2] is T2, Leucyl aminopeptidase (EC 3.4.11.1) (Sus scrofa, UniProt P28839).
T2 construct: from porcine kidney (Sigma); chromatographically purified suspension; purchased Sigma; host or cells: porcine kidney
T2 sequence (P28839 1-519): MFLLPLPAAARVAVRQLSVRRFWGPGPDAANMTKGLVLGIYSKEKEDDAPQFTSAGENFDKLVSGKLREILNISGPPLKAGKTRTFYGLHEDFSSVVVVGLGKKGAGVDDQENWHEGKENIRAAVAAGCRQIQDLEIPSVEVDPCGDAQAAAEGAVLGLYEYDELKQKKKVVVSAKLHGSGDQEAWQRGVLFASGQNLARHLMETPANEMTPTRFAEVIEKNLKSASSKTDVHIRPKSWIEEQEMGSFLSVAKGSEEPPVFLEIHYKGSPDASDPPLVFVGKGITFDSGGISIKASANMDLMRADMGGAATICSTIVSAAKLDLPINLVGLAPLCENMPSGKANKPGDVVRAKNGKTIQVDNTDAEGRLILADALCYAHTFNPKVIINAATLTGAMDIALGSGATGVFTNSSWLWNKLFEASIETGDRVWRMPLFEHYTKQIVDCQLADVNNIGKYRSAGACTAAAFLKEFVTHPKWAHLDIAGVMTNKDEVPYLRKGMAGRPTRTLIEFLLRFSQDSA
The experiment in a line: Enzymatic degradation by leucyl aminopeptidase. The class given is in vitro ADME, porcine. The following applies: compared to the native peptides. The protocol:
Enzymatic Degradation—Leucyl Aminopeptidase. Leucyl aminopeptidase (EC 3.4.11.1) from porcine kidney (Sigma); chromatographically purified suspension in 2.9 M (NH4)2SO4, 0.1 M Tris, 5 mM MgCl2 solution, pH 8.0; stock solution in PBS buffer (pH 7.2, 0.01 M). For each degradation experiment, stock solutions of the peptidic substrate and the enzyme were made using phosphate-buffered saline (PBS) buffer solution. […] The pH was adjusted either with NaOH (1 M) or with HCl (1 M) prior to use. A solution of the substrate in PBS buffer (pH 7.2, 0.01 M) and a solution of the required amount of enzyme, were mixed and incubated at 25° C. for 4 hours. Degradation was stopped with concentrated AcOH, and buffer solution was added so that the total volume reached 150 μL.
The resulting mixture was analyzed by reversed-phase HPLC. A mixture of CH3CN/H2O (0.1% TFA) was used as eluent. Gradients were 10% CH3CN to 100% CH3CN in 10 minutes. The flow rate, for all separations, was 1 mL·min^−1.

Turning to `CC[C@H](C)[C@H](NC(=O)[C@H](Cc1ccccc1)NC(=O)[C@H](CCC(=O)O)NC(=O)[C@H](CCCCN)NC(=O)[C@H](C)NC(=O)[C@H](C)NC(=O)[C@H](CCC(N)=O)NC(=O)CNC(=O)[C@H](CCC(=O)O)NC(=O)[C@H](CC(C)C)NC(=O)[C@H](Cc1ccc(O)cc1)NC(=O)[C@H](CO)NC(=O)[C@H](CO)NC(=O)[C@@H](NC(=O)[C@H](CC(=O)O)NC(=O)[C@H](CO)NC(=O)[C@@H](NC(=O)[C@H](Cc1ccccc1)NC(=O)[C@@H](NC(=O)CNC(=O)[C@H](CCC(=O)O)NC(=O)NC[C@H](C)NC(=O)[C@@H](N)Cc1c[nH]cn1)[C@@H](C)O)[C@@H](C)O)C(C)C)C(=O)N[C@@H](C)C(=O)N[C@@H](Cc1c[nH]c2ccccc12)C(=O)N[C@@H](CC(C)C)C(=O)N[C@H](C(=O)N[C@@H](CCCCN)C(=O)NCC(=O)N[C@@H](CCCNC(=N)N)C(=O)NCC(=O)O)C(C)C` [Compound 13], the EC50 in series [1] was found to be 0.079 nM. In addition, the “stability (half-life) with leucyl aminopeptidase compared to native peptides” value in series [2] was “more stable than the native peptides”.
